This is a selection: effects in other tests are not listed, and their absence says nothing.
Molecular target: human muscarinic acetylcholine M3 receptor (M3-ACh) (Homo sapiens, UniProt P20309)
Conditions: M3, Table 3, C8

Protein sequences, listed by entry. Tags and fused reporters are not part of them.
UniProt P20309, whole entry: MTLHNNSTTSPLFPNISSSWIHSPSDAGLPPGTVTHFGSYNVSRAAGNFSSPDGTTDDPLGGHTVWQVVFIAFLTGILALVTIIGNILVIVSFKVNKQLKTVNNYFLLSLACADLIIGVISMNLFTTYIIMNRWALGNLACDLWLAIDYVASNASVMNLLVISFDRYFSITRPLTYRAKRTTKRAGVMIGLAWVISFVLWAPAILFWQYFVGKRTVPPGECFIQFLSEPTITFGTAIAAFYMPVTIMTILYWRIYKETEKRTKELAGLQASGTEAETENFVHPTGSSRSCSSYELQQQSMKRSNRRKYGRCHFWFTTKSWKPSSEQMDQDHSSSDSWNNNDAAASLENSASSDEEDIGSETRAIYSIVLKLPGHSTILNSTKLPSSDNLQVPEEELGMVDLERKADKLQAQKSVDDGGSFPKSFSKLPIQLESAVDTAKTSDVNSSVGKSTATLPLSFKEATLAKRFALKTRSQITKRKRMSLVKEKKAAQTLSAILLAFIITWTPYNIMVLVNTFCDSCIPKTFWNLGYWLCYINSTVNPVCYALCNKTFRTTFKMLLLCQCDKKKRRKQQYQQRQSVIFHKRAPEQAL

For `O=C(O[C@H]1CN2CCC1CC2)C1(c2ccccc2)CCCCCCC1`, the “pIC50 of comparative compounds containing a cyclooctyl (C8) ring in place of cycloheptyl (C7)” value was 9.1 (Comp Ex. 7).

— patent US8207193B2 (priority 2006, dated 2012)
